{
  "sequences": {"note": "Sequences of proteins named here, by UniProt entry; tags and fusion partners are left off.", "UniProt P97612, whole entry": "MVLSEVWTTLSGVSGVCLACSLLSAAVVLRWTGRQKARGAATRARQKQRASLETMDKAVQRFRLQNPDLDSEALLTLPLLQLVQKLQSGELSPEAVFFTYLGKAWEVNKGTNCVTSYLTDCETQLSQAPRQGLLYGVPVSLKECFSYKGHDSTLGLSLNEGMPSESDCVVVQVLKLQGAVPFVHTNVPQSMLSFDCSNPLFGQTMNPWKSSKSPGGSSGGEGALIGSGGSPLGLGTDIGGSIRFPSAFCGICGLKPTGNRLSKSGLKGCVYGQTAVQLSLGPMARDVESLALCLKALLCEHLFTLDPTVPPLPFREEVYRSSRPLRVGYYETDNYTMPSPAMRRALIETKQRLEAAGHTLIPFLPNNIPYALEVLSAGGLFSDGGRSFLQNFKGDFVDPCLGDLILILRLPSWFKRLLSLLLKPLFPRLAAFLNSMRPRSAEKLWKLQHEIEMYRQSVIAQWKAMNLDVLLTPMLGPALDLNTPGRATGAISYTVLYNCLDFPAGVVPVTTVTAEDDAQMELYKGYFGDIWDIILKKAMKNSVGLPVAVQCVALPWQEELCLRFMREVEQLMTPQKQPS"},
  "source": "paper PMC7795171",
  "about": "“In Silico and In Vitro Analysis of Major Cannabis-Derived Compounds as Fatty Acid Amide Hydrolase Inhibitors” (Molecules, 2020)",
  "target": "T1, rFAAH (Rattus norvegicus, UniProt P97612)",
  "T1 construct": "from tissue; host or cells: rat brain membranes",
  "assay": "FAAH activity assay, rat brain membranes, [14C]AEA hydrolysis",
  "assay_type": "biochemical",
  "settings": "10 µM [14C]AEA, 37 °C, 15 min, pH 9.0, dose-response 0–100 µM, read-out: IC50 Towards rFAAH",
  "method": "Rat brains were homogenized in 50 mM Tris-HCl (50 mM, pH 7.4), and were centrifuged sequentially at 800× g and 20,000× g; then, the supernatants were discharged, and rFAAH activity was tested in membrane preparations incubated with 10 µM [^14C]AEA at 37 °C for 15 min (pH = 9.0). The reaction was stopped with a 1:1 (v/v) mixture of chloroform/methanol and the release of [^14C]ethanolamine in the aqueous phase was measured as reported. Purified human FAAH was assayed in the same way as rFAAH.",
  "data": [
    {"compound": "C=C(C)[C@@H]1CCC(C)=C[C@H]1c1c(O)cc(CCCCC)cc1O", "note": "[CBD, cannabidiol, reference compound]", "values": [
      {"measurement": "IC50", "value": "43.5 ± 1.5", "unit": "µM"}
    ]}
  ]
}
